Data from ChEMBL document CHEMBL5728058, “3-(carboxymethyl)-8-amino-2-oxo-1,3-diaza-spiro-[4.5]-decane derivatives” (2020).
“And” between values parts separate entries of the source, which are not always exact repeats. Identical values can stand only once.

Sequences of proteins named here, by UniProt entry; tags and fusion partners are left off. A change or cut given only in a name is not applied to a line headed by its entry.
UniProt P41146: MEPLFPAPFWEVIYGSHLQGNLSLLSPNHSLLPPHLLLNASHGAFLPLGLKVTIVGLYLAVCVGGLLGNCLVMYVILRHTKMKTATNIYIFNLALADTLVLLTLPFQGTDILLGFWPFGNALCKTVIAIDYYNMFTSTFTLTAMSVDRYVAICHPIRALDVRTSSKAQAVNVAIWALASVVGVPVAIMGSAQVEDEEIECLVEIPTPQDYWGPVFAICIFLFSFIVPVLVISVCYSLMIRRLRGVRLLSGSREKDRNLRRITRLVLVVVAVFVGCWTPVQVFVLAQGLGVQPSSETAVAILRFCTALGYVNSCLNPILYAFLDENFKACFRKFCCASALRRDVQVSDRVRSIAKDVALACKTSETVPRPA
UniProt P35372, whole entry, looked up: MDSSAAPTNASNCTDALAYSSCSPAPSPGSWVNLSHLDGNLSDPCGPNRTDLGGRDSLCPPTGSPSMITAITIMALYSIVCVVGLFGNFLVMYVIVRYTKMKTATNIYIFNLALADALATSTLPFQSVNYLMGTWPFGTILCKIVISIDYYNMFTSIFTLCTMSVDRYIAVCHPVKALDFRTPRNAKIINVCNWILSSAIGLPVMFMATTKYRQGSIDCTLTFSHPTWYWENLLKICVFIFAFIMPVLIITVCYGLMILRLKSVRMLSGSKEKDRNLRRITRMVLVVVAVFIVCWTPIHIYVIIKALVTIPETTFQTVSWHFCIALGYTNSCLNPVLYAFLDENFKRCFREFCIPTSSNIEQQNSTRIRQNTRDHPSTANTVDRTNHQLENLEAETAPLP

Experiments:
Nociceptin receptor = Nociceptin receptor (Homo sapiens, UniProt P41146); experiment: Human Nociceptin/Orphanin FQ Peptide (hNOP) Receptor Binding Assay: The hNOP receptor binding assay was performed as homogeneous SPA-assay (scintillation proximity assay) using the assay buffer 50 mM TRIS-HCl, 10 mM MgCl2, 1 mM EDTA (pH 7.4). The final assay volume (250 μl/well) included 0.5 nM of [leucyl-3H]nociceptin as ligand (PerkinElmer Life Sciences, Inc. Boston, Mass., USA), and either test
Mu-type opioid receptor = Mu-type opioid receptor (Homo sapiens, UniProt P35372); experiment: Human Mu-Opioid Peptide (hMOP) Receptor Binding Assay: The hMOP receptor binding assay was performed as homogeneous SPA-assay (scintillation proximity assay) using the assay buffer 50 mM TRIS-HCl (pH 7.4) supplemented with 0.052 mg/ml bovine serum albumin (Sigma-Aldrich Co., St. Louis, Mo.). The final assay volume (250 μl/well) included 1 nM of [N-allyl-2,3-3H]naloxone as ligand (PerkinElmer Life

Compound | Ki (Nociceptin receptor) | Ki (Mu-type opioid receptor)
COCCNC(=O)CN1C[C@]2(CC[C@](c3ccccc3)(N(C)C)CC2)N(CC2(O)CCC2)C1=O | 27 nM | 66.5 nM
CNC(=O)CN(C)C(=O)CN1C[C@]2(CC[C@](c3ccccc3)(N(C)C)CC2)N(CCCOC)C1=O | 125 nM | 435 nM
CN(C)[C@]1(c2ccccc2)CC[C@]2(CC1)CN(CC(=O)Nc1ccncn1)C(=O)N2CC1(C)CCC1 | 5.7 nM | 63.5 nM
COCCOCCOCCOCCNC(=O)CN1C[C@]2(CC[C@](c3ccccc3)(N(C)C)CC2)N(CC2CCC2)C1=O | 13 nM | 270 nM
CN(C)[C@]1(c2ccccc2)CC[C@]2(CC1)CN(CC(=O)Nc1ccncc1)C(=O)N2CC1(O)CCC1 | 13 nM | 130 nM
CN(C)[C@]1(c2ccccc2)CC[C@]2(CC1)CN(CC(=O)NCC(N)=O)C(=O)N2CC1(C#N)CCC1 | 11.5 nM | 
CN(C)[C@]1(c2ccccc2)CC[C@]2(CC1)CN(CC(=O)N1CCC(C(N)=O)CC1)C(=O)N2CC1(O)CCC1 | 8 nM | 510 nM
CN(C)[C@]1(c2ccccc2)CC[C@@]2(CC1)CN(CC(=O)NCCO)C(=O)N2CC1CCC1 | 66 nM | 
CN(CC(N)=O)C(=O)CN1C[C@]2(CC[C@](c3ccccc3)(N(C)C)CC2)NC1=O | 230 nM | 
COCCCN1C(=O)N(CC(=O)NCCC#N)C[C@]12CC[C@](c1ccccc1)(N(C)C)CC2 | 70.5 nM | 
CN(C)[C@]1(c2ccccc2)CC[C@]2(CC1)CN(CC(=O)NCC1(O)CCCCC1)C(=O)N2CC1CCC1 | 3.7 nM | 26.5 nM
CN(C)[C@]1(c2ccccc2)CC[C@]2(CC1)CN(CC(=O)Nc1ccccc1)C(=O)N2 | 52 nM | 
CN(C)[C@]1(c2ccccc2)CC[C@]2(CC1)CN(CC(=O)Nc1ccccn1)C(=O)N2CC1(O)CCC1 | 12.5 nM | 
CN(C)[C@]1(c2ccccc2)CC[C@]2(CC1)CN(CC(=O)NC1CCS(=O)(=O)CC1)C(=O)N2CC1(O)CCC1 | 12.9 nM | 195 nM
COc1ccnc(NC(=O)CN2C[C@]3(CC[C@](c4ccccc4)(N(C)C)CC3)N(CC3CCC3)C2=O)n1 | 2.5 nM and 6.5 nM | 29 nM and 73.5 nM
CNC(=O)CN1C[C@]2(CC[C@@](NC)(c3ccccc3)CC2)N(CC2CCC2)C1=O | 13.3 nM and 11 nM | 124 nM and 120 nM
CN(C)[C@]1(c2ccccc2)CC[C@]2(CC1)CN(CC(=O)N1CCC(C)(O)CC1)C(=O)N2CC1CC1 | 13 nM | 255 nM
CN(C)CCNC(=O)CN1C[C@]2(CC[C@](c3ccccc3)(N(C)C)CC2)N(CC2CCC2)C1=O | 4.6 nM | 
CCCN1C(=O)N(CC(=O)NC)C[C@]12CC[C@](c1ccccc1)(N(C)C)CC2 | 40 nM | 18.8 nM
COCCOCCOCCOCCNC(=O)CN1C[C@]2(CC[C@](c3ccccc3)(N(C)C)CC2)NC1=O | 475 nM | 
CN(C)[C@]1(c2ccccc2)CC[C@]2(CC1)CN(CC(=O)NCCS(C)(=O)=O)C(=O)N2CC1CC1 | 8 nM | 97 nM
CN(C)[C@]1(c2ccccc2)CC[C@]2(CC1)CN(CC(=O)NC(C)(C)C(N)=O)C(=O)N2CC1CCC1 | 9.1 nM | 112 nM
COCCCN1C(=O)N(CC(=O)NCc2ccncn2)C[C@]12CC[C@](c1ccccc1)(N(C)C)CC2 | 59 nM | 45 nM
CN(C)[C@]1(c2ccccc2)CC[C@]2(CC1)CN(CC(N)=O)C(=O)N2CC1CC1 | 12 nM | 95 nM
CN(C)[C@]1(c2ccccc2)CC[C@@]2(CC1)CN(CC(N)=O)C(=O)N2CC1CC1 | 185 nM | 225 nM

Compound | Ki (Nociceptin receptor) | Ki (Mu-type opioid receptor)
COCCN1C(=O)N(CC(=O)NCCO)C[C@]12CC[C@](c1ccccc1)(N(C)C)CC2 | 115 nM | 
COCCCN1C(=O)N(CC(=O)NCCO)C[C@]12CC[C@](c1ccccc1)(N(C)C)CC2 | 80 nM | 230 nM
COCCCN1C(=O)N(CC(=O)N(C)CC(N)=O)C[C@]12CC[C@](c1ccccc1)(N(C)C)CC2 | 130 nM | 185 nM
CN[C@]1(c2ccccc2)CC[C@]2(CC1)CN(CC(=O)N1C[C@@H](O)[C@@H](O)C1)C(=O)N2CC1CCC1 | 30.5 nM | 119 nM
CNC(=O)CN(C)C(=O)CN1C[C@]2(CC[C@](c3ccccc3)(N(C)C)CC2)N(CC2CCC2)C1=O | 6.3 nM and 17 nM | 116 nM and 180 nM
CNC(=O)CN1C[C@]2(CC[C@](c3ccccc3)(N(C)CC(C)C)CC2)N(CC2CCC2)C1=O | 665 nM | 1740 nM
C[C@H](CO)NC(=O)CN1C[C@]2(CC[C@](c3ccccc3)(N(C)C)CC2)N(CC2CCC2)C1=O | 3.7 nM | 
CN(C)[C@]1(c2ccccc2)CC[C@]2(CC1)CN(CC(=O)NCCC(=O)N1CCOCC1)C(=O)N2CC1CCC1 | 4.6 nM | 170 nM
CN(C)[C@]1(c2ccccc2)CC[C@]2(CC1)CN(CC(=O)NCCS(C)(=O)=O)C(=O)N2CC1(O)CCC1 | 14 nM | 57.5 nM
CN[C@]1(c2ccccc2)CC[C@]2(CC1)CN(CC(=O)NC1COC1)C(=O)N2CC1(O)CCC1 | 145 nM | 
CN(C)[C@]1(c2ccccc2)CC[C@]2(CC1)CN(CC(=O)Nc1cncnc1)C(=O)N2CC1(O)CCC1 | 5.8 nM | 
CN(C)[C@]1(c2ccccc2)CC[C@]2(CC1)CN(CC(=O)N1CCOC(CO)C1)C(=O)N2CC1CCC1 (stereo partly specified) | 3.2 nM | 
CN(C)[C@]1(c2ccc(F)cc2)CC[C@]2(CC1)CN(CC(=O)NCCO)C(=O)N2CC1CCC1 | 11 nM | 86 nM
CN[C@]1(c2ccccc2)CC[C@]2(CC1)C(=O)N(CC(=O)N1CCS(=O)(=O)CC1)C(=O)N2CC1(O)CCC1 | 23 nM | 
COCCCN1C(=O)N(CC(=O)Nc2ccnnc2)C[C@]12CC[C@](c1ccccc1)(N(C)C)CC2 | 43 nM | 128 nM
COCCOCCOCCOCCOCCOCCOCCOCCNC(=O)CN1C[C@]2(CC[C@](c3ccccc3)(N(C)C)CC2)N(CC2CCC2)C1=O | 68.5 nM | 
CN(C)[C@]1(c2ccccc2)CC[C@]2(CC1)CN(CC(=O)NCC(C)(C)O)C(=O)N2CC1CCC1 | 5.2 nM | 59 nM
CNC(=O)CN1C[C@]2(CC[C@](c3ccccc3)(N(C)C)CC2)N(CC2(C)CCC2)C1=O | 8.2 nM | 
COCCCN1C(=O)N(CC(=O)Nc2cncnc2)C[C@]12CC[C@](c1ccccc1)(N(C)C)CC2 | 11.2 nM | 124 nM
COC(=O)c1cccnc1NC(=O)CN1C[C@]2(CC[C@](c3ccccc3)(N(C)C)CC2)N(CC2CCC2)C1=O | 7.6 nM | 55 nM
CCN(C)[C@]1(c2ccccc2)CC[C@]2(CC1)CN(CC(=O)NC)C(=O)N2CC1CCC1 | 36.5 nM | 
CN(CCO)C(=O)CN1C[C@]2(CC[C@](c3ccccc3)(N(C)C)CC2)NC1=O | 465 nM | 
CN(C)[C@]1(c2ccccc2)CC[C@]2(CC1)CN(CC(=O)NCc1cnco1)C(=O)N2CC1CCC1 | 3.3 nM | 
CN(CCO)C(=O)CN1C[C@]2(CC[C@](c3ccccc3)(N(C)C)CC2)N(CC2CC2)C1=O | 31 nM | 615 nM
CNC(=O)CN1C[C@]2(CC[C@@](c3ccccc3)(N(C)C)CC2)N(CC2CC2)C1=O | 230 nM | 73.5 nM

Compound | Ki (Nociceptin receptor) | Ki (Mu-type opioid receptor)
CCN(C)[C@]1(c2ccccc2)CC[C@]2(CC1)CN(CC(=O)NCCO)C(=O)N2CC1CCC1 | 39 nM | 660 nM
CNC(=O)C(C)(C)NC(=O)CN1C[C@]2(CC[C@@](NC)(c3ccccc3)CC2)N(CC2CCC2)C1=O | 87.5 nM | 180 nM
CNC(=O)CN1C[C@]2(CC[C@](c3ccccc3)(N(C)C)CC2)N(CCOC)C1=O | 140 nM | 145 nM
CN(C)[C@]1(c2ccccc2)CC[C@@]2(CC1)CN(CC(=O)N1CCS(=O)(=O)CC1)C(=O)N2CC1CC1 | 160 nM | 
COC(=O)c1ccnc(NC(=O)CN2C[C@]3(CC[C@](c4ccccc4)(N(C)C)CC3)N(CC3CCC3)C2=O)c1 | 4.9 nM | 69.5 nM
COc1ncc(CNC(=O)CN2C[C@]3(CC[C@](c4ccccc4)(N(C)C)CC3)N(CC3CCC3)C2=O)cn1 | 3.5 nM | 
CN(C)C(=O)CCNC(=O)CN1C[C@]2(CC[C@](c3ccccc3)(N(C)C)CC2)N(CC2CCC2)C1=O | 7.5 nM | 31.5 nM
CC(C)CN1C(=O)N(CC(=O)NCC(N)=O)C[C@]12CC[C@](c1ccccc1)(N(C)C)CC2 | 12.5 nM | 144 nM
COCCCN1C(=O)N(CC(=O)Nc2cc(OC)ccn2)C[C@]12CC[C@](c1ccccc1)(N(C)C)CC2 | 19 nM | 106 nM
CN(C)[C@]1(c2ccccc2)CC[C@]2(CC1)CN(CC(=O)NC1COC1)C(=O)N2CC1(O)CCC1 | 23 nM | 
CN[C@]1(c2ccccc2)CC[C@]2(CC1)CN(CC(=O)N(C)CCO)C(=O)N2 | 1140 nM | 
CN(C)[C@]1(c2ccccc2)CC[C@]2(CC1)CN(CC(=O)NCCO)C(=O)N2CC1CCC1 | 1.8 nM and 4.9 nM | 
CN(C)[C@]1(c2ccccc2)CC[C@]2(CC1)CN(CC(=O)N1CCC[C@H]1C(N)=O)C(=O)N2CC1CCC1 | 5.2 nM | 
COCCCN1C(=O)N(CC(=O)Nc2cccc(OC)n2)C[C@]12CC[C@](c1ccccc1)(N(C)C)CC2 | 9.1 nM | 
CN[C@]1(c2ccccc2)CC[C@]2(CC1)CN(CC(=O)N(C)CC(N)=O)C(=O)N2 | 1110 nM | 
CN(C)[C@]1(c2ccccc2)CC[C@]2(CC1)CN(CC(=O)N1C[C@@H](O)[C@@H](O)C1)C(=O)N2CC1CCC1 | 5.1 nM and 4.5 nM | 
CNC(=O)CNC(=O)CN1C[C@]2(CC[C@@](NC)(c3ccccc3)CC2)N(CC2CCC2)C1=O | 34.5 nM | 
CN(C)[C@]1(c2ccccc2)CC[C@]2(CC1)CN(CC(=O)NC1CC1)C(=O)N2CC1CCC1 |  | 12.6 nM
CNC(=O)CN1C[C@]2(CC[C@](c3ccccc3)(N(C)C)CC2)N(CC(C)C)C1=O | 15.3 nM | 
COc1ccc(NC(=O)CN2C[C@]3(CC[C@](c4ccccc4)(N(C)C)CC3)N(CC3CCC3)C2=O)cn1 |  | 34.5 nM
Cc1ccncc1CNC(=O)CN1C[C@]2(CC[C@](c3ccccc3)(N(C)C)CC2)N(CC2CCC2)C1=O |  | 15.5 nM
Cc1ncccc1NC(=O)CN1C[C@]2(CC[C@](c3ccccc3)(N(C)C)CC2)N(CC2CCC2)C1=O |  | 15 nM
CN(C)[C@]1(c2ccccc2)CC[C@]2(CC1)CN(CC(=O)N1CC[C@H](O)[C@@H](O)C1)C(=O)N2CC1CCC1 |  | 78 nM
